The text below walks through data of ChEMBL document CHEMBL1131110, “Deoxyadenosine bisphosphate derivatives as potent antagonists at P2Y1 receptors” (J Med Chem, 1998).

By UniProt entry, the sequences of proteins in these tests, tags left out. Where a name states a change or a piece, a line headed by the entry shows the natural chain unless it says otherwise.
UniProt P49652: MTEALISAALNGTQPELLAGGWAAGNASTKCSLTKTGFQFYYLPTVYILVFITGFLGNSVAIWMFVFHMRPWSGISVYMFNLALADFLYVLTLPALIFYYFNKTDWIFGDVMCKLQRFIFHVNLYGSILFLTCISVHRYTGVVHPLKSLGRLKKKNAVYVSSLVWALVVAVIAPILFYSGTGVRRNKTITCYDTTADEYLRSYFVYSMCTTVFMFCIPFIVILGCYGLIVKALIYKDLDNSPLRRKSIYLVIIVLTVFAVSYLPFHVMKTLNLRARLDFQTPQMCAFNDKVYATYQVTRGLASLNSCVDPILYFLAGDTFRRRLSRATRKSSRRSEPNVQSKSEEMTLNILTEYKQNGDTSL

For the test, the target named is P2Y purinoceptor 1 (Meleagris gallopavo) (UniProt P49652). The experiment in a line: Agonist activity at P2Y1 receptor measured as capacity to stimulate phospholipase C in turkey erythrocyte membranes; NE=No effect. The format is functional, cell membranes. In a few lines:
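Turkey erythrocytes labelled with 2-[3H]myo-inositol in inositol-free DMEM for 18–24 h at 37 °C, 5% CO2. Ghosts made by hypotonic lysis. Labelled ghosts (~175 μg protein) incubated 5 min at 30 °C with 1 μM GTPγS and test nucleotide at pH 7.0 (HEPES, KCl, CaCl2, MgSO4, EGTA). Total [3H]inositol phosphates measured by anion-exchange chromatography. EC50 from four-parameter logistic fit. Efficacy is relative to a maximal 2-MeSATP response in the same experiment.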

The source made the active and inactive calls. The calls are words filed in the database; no cut-off is given here.

For `CNc1ncnc2c1ncn2[C@H]1C[C@H](OP(=O)(O)O)[C@@H](COP(=O)(O)O)O1`, the Max increase entry was “inactive”.
